Reference: US11130761B2, “Substituted pyrrolo[2,1-f][1,2,4]triazines as FGFR inhibitors” (CSPC ZHONGQI PHARMACEUTICAL TECHNOLOGY (SHIJIAZHUANG) CO., …, priority 2016, dated 2021)

Chains of the proteins cited; added tags and fusions are not shown. Residues count along the entry.
UniProt P22455, 22-802 limits assumed: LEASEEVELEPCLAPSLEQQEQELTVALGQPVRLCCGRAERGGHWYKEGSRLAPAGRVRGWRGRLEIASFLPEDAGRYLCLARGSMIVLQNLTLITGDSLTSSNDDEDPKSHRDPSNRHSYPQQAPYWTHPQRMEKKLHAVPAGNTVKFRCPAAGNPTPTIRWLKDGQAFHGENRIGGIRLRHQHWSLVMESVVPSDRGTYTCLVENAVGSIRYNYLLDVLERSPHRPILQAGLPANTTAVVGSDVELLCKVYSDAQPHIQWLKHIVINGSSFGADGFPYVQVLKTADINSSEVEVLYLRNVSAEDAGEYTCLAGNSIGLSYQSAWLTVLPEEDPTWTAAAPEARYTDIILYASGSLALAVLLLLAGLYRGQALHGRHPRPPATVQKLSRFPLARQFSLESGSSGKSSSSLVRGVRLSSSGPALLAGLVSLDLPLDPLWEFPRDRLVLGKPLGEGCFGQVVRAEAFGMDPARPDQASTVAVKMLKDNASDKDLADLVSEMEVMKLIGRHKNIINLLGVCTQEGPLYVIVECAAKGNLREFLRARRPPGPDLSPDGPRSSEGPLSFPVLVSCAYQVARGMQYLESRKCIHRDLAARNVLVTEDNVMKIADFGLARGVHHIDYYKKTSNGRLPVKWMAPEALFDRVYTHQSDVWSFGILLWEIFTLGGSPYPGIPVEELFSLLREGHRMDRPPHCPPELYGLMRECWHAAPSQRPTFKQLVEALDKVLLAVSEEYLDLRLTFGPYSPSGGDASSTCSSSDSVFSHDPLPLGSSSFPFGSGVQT
UniProt P11362, 22-822 limits assumed: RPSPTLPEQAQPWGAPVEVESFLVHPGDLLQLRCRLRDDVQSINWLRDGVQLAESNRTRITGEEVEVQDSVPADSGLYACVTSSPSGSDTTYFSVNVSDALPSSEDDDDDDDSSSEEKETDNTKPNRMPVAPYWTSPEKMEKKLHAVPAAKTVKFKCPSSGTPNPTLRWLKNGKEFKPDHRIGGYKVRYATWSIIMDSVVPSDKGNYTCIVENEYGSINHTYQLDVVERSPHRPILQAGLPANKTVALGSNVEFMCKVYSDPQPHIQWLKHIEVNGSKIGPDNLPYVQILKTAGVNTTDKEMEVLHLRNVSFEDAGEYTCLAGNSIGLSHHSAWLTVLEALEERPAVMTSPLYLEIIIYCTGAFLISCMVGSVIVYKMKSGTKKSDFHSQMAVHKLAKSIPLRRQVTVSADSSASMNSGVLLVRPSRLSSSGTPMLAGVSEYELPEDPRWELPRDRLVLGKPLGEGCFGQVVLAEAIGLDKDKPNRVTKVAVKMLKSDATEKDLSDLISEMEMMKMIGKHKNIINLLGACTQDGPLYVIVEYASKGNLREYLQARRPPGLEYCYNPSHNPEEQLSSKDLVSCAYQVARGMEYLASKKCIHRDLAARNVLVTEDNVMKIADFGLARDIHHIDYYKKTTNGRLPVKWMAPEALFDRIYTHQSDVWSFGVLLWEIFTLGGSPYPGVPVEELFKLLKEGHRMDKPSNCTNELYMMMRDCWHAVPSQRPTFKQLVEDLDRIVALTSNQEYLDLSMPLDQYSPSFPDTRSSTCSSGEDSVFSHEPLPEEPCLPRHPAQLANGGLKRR

Key:
human FGFR4 = human FGFR4 (Homo sapiens, UniProt P22455); assay: 33P isotope-labeled kinase activity assay (Reaction Biology Corp), FGFR4; format: biochemical
human FGFR1 = human FGFR1 (Homo sapiens, UniProt P11362); assay: 33P isotope-labeled kinase activity assay (Reaction Biology Corp), FGFR1; format: biochemical; details: read-out: IC50 (nM) FGFR1; 33P-ATP kinase assay, ATP 5 μM, kinase 1.75 nM, substrate pEY + Mn, 120 minutes at room temperature

C=CC(=O)N1CCC(c2cc(C#Cc3cc(OC)cc(OC)c3)c3c(N)ncnn23)C1 (single isomer, unassigned) [Embodiment 1]
Inhibition activity difference (IC50 ratio) FGFR4/FGFR1 (human FGFR4; ratio of FGFR4 IC50 to FGFR1 IC50): 7
IC50 (human FGFR4; read-out: IC50 (nM) FGFR4, 33P-ATP kinase assay, ATP 100 μM, kinase 2.5 nM, substrate pEY + Mn, 120 minutes at room temperature): 0.27 nM
IC50 (human FGFR1): 0.04 nM
